Chains of the proteins cited; added tags and fusions are not shown.
ATP-dependent Clp protease proteolytic subunit (Bacillus subtilis (strain 168)), P80244, UniProt P80244, whole entry, looked up: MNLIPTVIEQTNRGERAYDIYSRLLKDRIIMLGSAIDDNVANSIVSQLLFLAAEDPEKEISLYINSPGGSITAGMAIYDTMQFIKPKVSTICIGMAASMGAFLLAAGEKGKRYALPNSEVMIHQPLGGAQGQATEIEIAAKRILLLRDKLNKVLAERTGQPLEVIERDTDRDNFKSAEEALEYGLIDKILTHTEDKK

# This is a sample that favours compounds with a hit; in the whole collection about 3.7% have one here.
# Nrf2 inh – inhibitors of Nrf2 signaling; A549 ARE-Fluc reporter, luciferase luminescence, 18-24 h; Potency, µM (top dose mostly 46 µM), without a hit: at the top dose activity change, negative = inhibition, most hits filed as inhibitors; 360,000 compounds, 2.1% hits; note: potency is the fitted concentration of half-maximal effect; % is set by controls: 0 for no effect and ±100 for the full control effect; nearly all actives have a fitted effect of over 60% in size
#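 Quantitative HTS in A549 cells stably bearing an antioxidant response element-firefly luciferase construct. Inhibition of Nrf2-driven transcription was scored by luminescence after 18-24 h of compound exposure at 37 °C.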
# miR-21 reporter – miR-21 reporter, rising signal | HeLa miR-21 FLuc reporter, luciferase, 48 h | Potency, µM (highest dose often 38.3 µM), for inactives: at the top dose reporter change, positive = more light | 340,000 tested, under 10 active | AID 2288; active = well fitted rising curve with a large enough effect; inconclusive = small, poorly fitted or top-dose-only effect; inactive = no such curve, though single readings can be large or run the other way;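 further: % of control where 0% means no effect; miR-21 action dims this reporter so a rising signal means less miR-21 action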
#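 HeLa cells stably expressing CMV-driven firefly luciferase with a downstream miR-21 binding sequence, endogenously expressing miR-21, were treated with titrations (up to about 40uM final) for 48 hours at 37 degree Celsius. Luciferase luminescence was read after lysis.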
# IL-2 act – activates IL-2 in a cell-based reporter assay; 360,000 compounds, 0.065% hits; IL-2 activation reporter assay, cell-based qHTS; stimulated with anti-CD3/CD4/CD28 beads; in transgenic mouse T cells; activation, % (series mostly up to about 46 µM); in the data active = activation above about 50%; inconclusive = mostly about 30% to 49%; note: 0% is about no effect
#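 First, unstimulated transgenic mouse T cells were exposed to compound for 60 min. Next, anti-CD3/anti-CD4-coated beads with anti-CD28 were added. Finally, after 18 h at 37 degrees C, EGFP and DsRed were imaged.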
# A549 tox – kills or reduces viability of A549 cells in Nrf2 counter-screen; 390,000 compounds, 0.16% hits; A549 ARE-Fluc cells, CellTiter-Fluor viability, 18-24 h; AID 504648; Potency, µM (titrated, usually from 46 µM), for inactives: at the top dose activity change, negative = cytotoxicity, usual class: inhibitors; note: potency is the fitted concentration of half-maximal effect; % is set by controls: 0 for no effect and ±100 for the full control effect
#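 Cytotoxicity counterscreen: CellTiter-Fluor fluorescence was measured in A549 ARE_Fluc cells after 18-24 h of compound exposure in a concentration series. The subsequent BugLite luminescent read reports ARE-luciferase activity.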
# ClpP mod – qHTS Assay for Activators of ClpP. purified B. subtilis ClpP, FRET peptide cleavage, 20 min. Potency, µM (titrated, usually from 57.5 µM), without a hit: top-dose activity change, negative = active. ATP-dependent Clp protease proteolytic subunit (Bacillus subtilis (strain 168)), P80244. 340,000 compounds, 1.9% hits; active = well fitted falling curve with a large enough effect; inconclusive = small, poorly fitted or top-dose-only effect; inactive = no such curve, though single readings can be large or run the other way; note: potency is the fitted concentration of half-maximal effect; the source files actives as falling curves though it sought activators and does not explain the sign; nearly all actives have a fitted effect of over 65% in size
#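 Buffer: 100 mM Tris/HCl pH8, 100 mM KCl, 0.05% low protease BSA, 2.5% glycerol, 0.01% Tween-20. ClpP 10 microg/mL final; 20 min RT; delta FRET normalized to ADEP and DMSO controls.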
# Nrf2 activator – Nrf2 pathway activation | AREc32 ARE-luciferase reporter (MCF7-derived line), luminescence, 24 h | 410,000 compounds, 0.31% hits | Potency, µM (titrated, usually from 46.1 µM), for the others: at the top dose activation, hits mostly activators | AID 624171; note: potency is the fitted concentration of half-maximal effect; % of control where 0% means no effect; nearly all actives have a fitted effect of over 65% in size
#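 Nrf2 activation is followed as ARE-luciferase induction in the AREc32 line after one day of compound treatment; luminescence is read with Steady-Glo.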
# The depositor's hits bear a star; ? = inconclusive; . = no result given. Unless noted, calls come from the whole dose curve; as a rule, active = well fitted curve in the direction sought with a large enough effect; inconclusive = small, poorly fitted or top-dose-only effect, or another doubt; inactive = no such curve, though single readings can be large; an effect the other way counts as inactive or inconclusive.
cpd	SMILES	Nrf2 inh	miR-21 reporter	IL-2 act	A549 tox	ClpP mod	Nrf2 activator
1	CC1(C)Cc2c(C#N)c(NCCc3ccccc3)nc(-c3ccco3)c2CO1	-8%	-3%	0	-2%	28µM*	8%
2	CN(C)CCCNc1nc(-c2ccccc2)c2c(c1C#N)CC(C)(C)OC2	-3%	-2%	1	0%	4%	0%
3	Cc1nc(NCCO)c(C#N)c2c1COC(C)(C)C2	-6%	-3%	2	-8%	22µM*	3%
4	CC1(C)Cc2c(C#N)c(NCC3CCCO3)nc(-c3ccco3)c2CO1 (stereo unspecified)	-22%	2%	0	0%	11µM*	4%
5	Cc1ccc(CNC(=O)C2CCN(C(=O)c3ccc(-n4ccc5ccccc54)s3)CC2)cc1	16%	-14%	.	-1%	?	0%
6	Fc1ccc2nc(Nc3ccccc3)sc2c1	?	-46%	0	-11%	11µM*	?
7	NNc1nc2ccc(F)cc2s1	8%	-41%	-4	-16%	-1%	17%
8	Cc1cccc(Cn2cc3c(=O)n(CC(=O)Nc4cccc(C)c4C)nc-3c3cc(F)ccc32)c1	16%	2%	.	1%	1%	-1%
9	COc1ccc2oc(C(=O)OCC(=O)N(C)c3ccccc3)c(C)c2c1	6%	.	-2	1%	.	0%
10	COc1ccc2oc(C(=O)OCC(=O)N(C)Cc3ccccc3)c(C)c2c1	-9%	.	-7	0%	28µM*	3%
11	COc1ccc2oc(C(=O)OCC(=O)N(Cc3ccccc3)C(C)C)c(C)c2c1	-14%	.	-6	2%	32µM*	0%
12	Cn1c(SCc2ccccc2)nc2ccsc2c1=O	16µM*	12%	1	-4%	.	13µM*
13	COc1ccc(C2C(C#N)C(C#N)N3CCCN23)cc1 (stereo unspecified)	12%	-3%	1	4%	32µM*	0%
14	CC(=O)Nc1cccc(OC2=NS(=O)(=O)c3ccccc32)c1	?	.	.	13%	.	.
15	O=C(CNC(=O)c1cccnc1)c1ccc(F)cc1	.	.	.	.	0%	.
16	c1ccc(Oc2nc3ccccc3n3cccc23)cc1	-5%	-3%	1	-2%	28µM*	1%
17	Cc1ccc(Oc2nc3ccccc3n3cccc23)cc1	.	2%	1	?	22µM*	3%
18	Cc1nnc2c(Oc3ccccc3)nc3ccccc3n12	.	1%	0	2%	-3%	4%
19	Cc1ccc(N2CC(NC(=O)c3ccc(S(=O)(=O)N4CCOCC4)cc3)CC2=O)cc1C (stereo unspecified)	.	14%	.	5%	0%	3%
20	COc1cc(OC)cc(-c2cc3nc(C)c(CCC(=O)NCc4ccc(Cl)cc4)c(C)n3n2)c1	10µM*	?	.	6%	4%	-4%
21	COc1cc(OC)cc(-c2cc3nc(C)c(CCC(=O)NCCc4cccc(C)c4)c(C)n3n2)c1	10µM*	9%	.	-6%	4%	-3%
22	Cc1cc(C)n(-c2ccc(C(=O)OCn3nnc4ccccc4c3=O)cc2)n1	1%	-4%	-2	-1%	3%	0%
23	Cc1nn(-c2ccccc2)c2sc(C(=O)NCCN3CCOCC3)cc12	13%	-9%	0	13%	28µM*	3%
24	Cc1nn(-c2ccccc2)c2sc(C(=O)NC3CCCCC3)cc12	-16%	-3%	-1	-3%	?	6%
25	Cc1ccn(C(=O)c2cc3c(C)nn(-c4ccccc4)c3s2)n1	.	0%	1	1%	3.5µM*	0%
26	Cc1nn(-c2ccccc2)c2sc(C(=O)OCn3nnc4ccccc4c3=O)cc12	4%	0%	-1	7%	10µM*	1%
27	CSCC[C@H](NC(=O)OC(C)(C)C)c1nnc(SCc2ccccc2)o1	.	6%	-4	-1%	-21%	0%
28	CSCC[C@H](NC(=O)OC(C)(C)C)c1nnc(SCc2ccc(F)cc2)o1	26µM*	16%	0	-10%	2%	0%
29	CCc1ccc(CNC(=O)C2CCN(C(=O)c3ccc(-n4ccc5ccccc54)s3)CC2)cc1	?	-1%	.	-13%	35µM*	4%
30	CCOc1ccc(CNC(=O)CCCn2c(=O)c3cccn3c3ccccc32)cc1	?	23%	.	?	-21%	-1%
31	COc1ccc(N(C)S(=O)(=O)c2cccc(C(=O)OCC(=O)c3c(N)n(C)c(=O)n(C)c3=O)c2)cc1	21µM*	.	-6	-12%	0%	0%
32	COc1cc2ccccc2cc1C(=O)OCC(=O)c1c(N)n(C)c(=O)n(C)c1=O	-7%	.	-1	-5%	32µM*	0%
33	Cc1c(NC(=O)C(F)(F)F)ccc2nc3c(=O)n(C)c(=O)n(C)c3nc12	-24%	-31%	.	-23%	-9%	1%
34	Cc1cccc(OCCn2c(NC(=O)c3ccco3)nc3ccccc32)c1	18µM*	11%	0	-4%	19%	5%
35	CCCn1c(NC(=O)c2ccc([N+](=O)[O-])o2)nc2ccccc21	1%	.	20	-11%	-8%	13µM*
36	Nc1nonc1-c1nc2ccccc2n1CC(=O)N1CCCCC1	-6%	-5%	0	-12%	-1%	-1%
37	O=C(Cn1c(-c2ccco2)nc2ccccc21)N1CCCCC1	-17%	0%	-4	-18%	16µM*	0%
38	CCCn1c(NC(=O)c2cccc(C)c2C)nc2ccccc21	?	9%	-2	-17%	3%	3%
39	Cc1cccc(OCCn2c(-c3ccco3)nc3ccccc32)c1	?	-33%	-4	-21%	25µM*	4%
40	Cc1ccc(OCCn2c(NC(=O)c3ccco3)nc3ccccc32)cc1	-25%	-4%	0	-12%	34%	4%
41	Cc1ccccc1NS(=O)(=O)c1nnc(NC(=O)c2ccco2)s1	?	-22%	.	-2%	0%	1%
42	O=C(CN1C(=O)CCc2cc(S(=O)(=O)N3CCOCC3)ccc21)Nc1cccc(Cl)c1	.	-12%	.	1%	-2%	4%
43	c1ccc(OCCn2c(-c3ccco3)nc3ccccc32)cc1	12%	-31%	0	14%	-29%	6%
44	CCn1c(-c2ccco2)nc2ccccc21	3%	-29%	-1	-12%	32µM*	3%
45	Cc1ccccc1CSc1cn(CC(=O)N2CCCC2)c2ccccc12	?	2%	.	-4%	0%	2%
46	COc1ccccc1C(NC(=O)CC(C)C)c1c(O)ccc2ccccc12 (stereo unspecified)	12%	-3%	0	2%	35µM*	-1%
